Source: ChEMBL document CHEMBL4041529, “Structure-Guided Design of EED Binders Allosterically Inhibiting the Epigenetic Polycomb Repressive Complex 2 (PRC2) Methyltransferase” (J Med Chem, 2017)
pIC50: −log10 of the molar value.

Protein sequences, listed by entry. Tags and fused reporters are not part of them.
UniProt O75530, whole entry: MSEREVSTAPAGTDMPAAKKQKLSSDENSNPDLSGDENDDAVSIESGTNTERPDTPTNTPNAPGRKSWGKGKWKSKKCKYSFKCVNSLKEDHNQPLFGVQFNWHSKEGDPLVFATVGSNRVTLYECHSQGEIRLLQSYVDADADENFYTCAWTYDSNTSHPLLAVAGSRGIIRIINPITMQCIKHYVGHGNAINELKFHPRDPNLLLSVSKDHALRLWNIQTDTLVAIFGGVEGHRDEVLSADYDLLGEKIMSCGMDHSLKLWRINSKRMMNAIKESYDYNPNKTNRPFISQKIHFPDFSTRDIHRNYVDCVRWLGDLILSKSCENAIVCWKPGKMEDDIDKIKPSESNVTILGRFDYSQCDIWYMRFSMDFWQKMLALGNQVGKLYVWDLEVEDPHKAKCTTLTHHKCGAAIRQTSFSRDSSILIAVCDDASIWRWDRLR

Molecular target: Polycomb protein EED (Homo sapiens, UniProt O75530)
Experiment: Inhibition of human PRC2-EED (76 to 441 residues) expressed in Escherichia coli BL21 (DE3) using histone H3[21 to 44, K27MeO] as substrate and SAM as co-factor measured after 2 hrs by LC-MS/MS method

Structure (SMILES): COc1ccccc1CC1CCCNC1 (stereo unspecified)
- pIC50: 3.84
